Experimental findings from PubChem BioAssay AID1777 (Sanford-Burnham Center for Chemical Genomics, 2009) are described below.

Sequences of proteins named here, by UniProt entry; tags and fusion partners are left off.
UniProt P41145, whole entry: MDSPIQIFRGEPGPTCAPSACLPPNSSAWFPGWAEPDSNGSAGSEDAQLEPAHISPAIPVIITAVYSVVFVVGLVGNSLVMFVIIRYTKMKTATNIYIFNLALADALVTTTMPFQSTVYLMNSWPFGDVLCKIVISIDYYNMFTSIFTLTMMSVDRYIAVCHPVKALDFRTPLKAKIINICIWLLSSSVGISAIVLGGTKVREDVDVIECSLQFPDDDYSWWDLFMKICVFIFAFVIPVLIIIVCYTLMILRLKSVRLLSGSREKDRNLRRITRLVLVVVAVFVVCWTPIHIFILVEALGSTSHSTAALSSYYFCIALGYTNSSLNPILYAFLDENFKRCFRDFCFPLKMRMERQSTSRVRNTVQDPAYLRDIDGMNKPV

The entries are a selection whose mix differs from that of the whole data set. Potency and affinity values are given separately. Some results for these compounds are left out of this collection, so the calls shown say nothing about other tests. Active and inactive are the calls of the source. No stated cut-off is given here; in the data, active means activation above about 50% (passing the limit was not always enough); inactive means the rest.

This assay deals with Kappa-type opioid receptor (Homo sapiens) (UniProt P41145). Nature of the assay: kappa opioid receptor activators – cell-based, luminescence, uHTS, primary screen (AID 1777). Particulars: KOR beta-arrestin recruitment, at 10 µM, active compounds read high.
With `O=C(NCC1(N2CCCCC2)CCCCC1)c1cc(F)c(F)cc1Cl`, the activation is inactive: -1.9%.
With `C=CCN1CCN(CCOC(=O)C(O)(c2ccccc2)c2ccccc2)CC1`, the activation was inactive: -1.3%.
Turning to `O=C(NCC1(N2CCCCC2)CCCCC1)c1cccc(Br)c1`, the activation is inactive: 1.3%.
Under `CCN1CCCC(OC(=O)C2(O)c3ccccc3C=Cc3ccccc32)C1` (centres undefined) stands inactive: 0%.
Under `Cc1cc(C(=O)NCC2(N3CCCCC3)CCCCC2)ccc1[N+](=O)[O-]` stands inactive: -4.7%; under `COc1ccc(C(=O)NCC2(N(C)C)CCCCC2)cc1`, inactive: 1.2%.
To `CN(C)c1ccc(C(=O)NCC2(N(C)C)CCCCC2)cc1` belongs inactive: -5%; to `CN(C)C1CCCC1OC(=O)C(O)(c1ccccc1)c1ccccc1` (centres undefined), inactive: -6.8%.
As to `Cc1ccccc1C(=O)NCC1(N2CCCCC2)CCCCC1`, the activation was inactive: 5.3%.
Under `CC(C)N1C(=O)CC2(CCN(CCOC(=O)C(O)(c3ccccc3)c3ccccc3)CC2)C1=O` stands inactive: 5.2%.
Regarding `COc1cc(SC)ccc1C(=O)NCC1(N(C)C)CCCCC1`, the activation was inactive: 0.5%.
As for `CCN(CC)CC(C)C(C)OC(=O)C(O)(c1ccccc1)c1ccccc1` (centres undefined), the activation was inactive: 6.1%.
Under `Cc1ccc(C(=O)NCC2(N3CCCCC3)CCCCC2)cc1` stands inactive: -0.7%; under `O=C(NCC1(N2CCCCC2)CCCCC1)c1cc([N+](=O)[O-])ccc1Cl`, inactive: -6.4%; under `CN1[C@@H]2CC[C@H]1CC(OC(=O)C(O)(c1ccccc1)c1ccccc1)C2` (some centres undefined), inactive: -1.8%.
For `COc1ccc(Br)c(C(=O)NCC2(N3CCCCC3)CCCCC2)c1`, the activation is inactive: 1.4%.
To `CN(C)c1cccc(C(=O)NCC2(N(C)C)CCCCC2)c1` belongs inactive: 7.8%.
For `CC(C)Oc1ccc(C(=O)NCC2(N(C)C)CCCCC2)cc1`, the activation was inactive: 0.1%.
To `O=C(OC1CN2CCC1CC2)C(CO)(c1ccccc1)c1ccccc1` (centres undefined) belongs inactive: 2.5%.
Turning to `COc1ccc(Cl)cc1C(=O)NCC1(N(C)C)CCCCC1`, the activation is inactive: -1.3%.
Under `COc1cccc(C(=O)NCC2(N3CCCCC3)CCCCC2)c1` stands inactive: 2.5%; under `O=C(NCC1(N2CCCCC2)CCCCC1)c1cccc(Cl)c1`, inactive: 0.8%.
To `CN(C)C1(CNC(=O)c2ccc(Br)cc2)CCCCC1` belongs inactive: -7.5%; to `COc1cc(C(=O)NCC2(N(C)C)CCCCC2)c([N+](=O)[O-])cc1OC`, inactive: 3.1%.
